“Also recorded” adds a separate entry of the source.
Assays:
[1] = Foaming property (initial foamability and foam stability), semi-micro TK method; settings: 1% solution
Source text: As samples for measuring initial foamability and foam stability, samples prepared under the same conditions as those used for measuring Krafft point were used (Table 14). […] The semi-micro TK method was used for measurement, and mean values were taken after measuring three times.
The tests were repeated three times and a mean value was taken.
Experiments were repeated three times, and a mean value was taken. For the experiment, a 1% aqueous solution was used.

[2] = Surface tension and cmc, Kruss tensiometer K12; assay type: physicochemical
Procedure: Samples of which surface tensions were to be measured were prepared by mixing SLS and a cationic compound in a mole ratio of 1:1, wherein deionized water was used as water, and a container for measurement was immersed in a cleaning solution for more than 3 hours, washed with water and acetone, dried in an oven, and then used.
A ring method was used, and after measuring 5 times, a mean value was taken. Solutions of 1%, 0.1%, 0.01%, and 0.001% by weight ratio of each of the cationic compounds were prepared to use for the tests.

[3] = Phase stability (appearance) of sample solutions; settings: for Phase stability (appearance of sample solution): 1% aqueous solution

| Substance | Foaming property, initial foamability, 0 min. ([1]; 0 min.) | Foaming property, 1 min. ([1]; 1 min.) | Foaming property, 2 min. ([1]; 2 min.) | Foaming property, 3 min. ([1]; 3 min.) | Foaming property, 4 min. ([1]; 4 min.) | Foaming property, foam stability after 5 min. ([1]; 5 min.) | Surface tension ([2]; concentration 0.001%) | Surface tension ([2]; concentration 0.01%) | Surface tension ([2]; concentration 0.1%) | Surface tension ([2]; concentration 1%) | Phase stability (appearance of sample solution) [3] | Concentration at which the solution became transparent ([3]; cationic compound in water) | Foaming property, result in words [1] |
| --- | --- | --- | --- | --- | --- | --- | --- | --- | --- | --- | --- | --- | --- |
| 1,6-[2-(N N-dodecylmethylamino)ethanol]hexane [Synthesis Example 18] | 213 mL | 203 mL | 190 mL | 128 mL | 120 mL | 105 mL | 47.44 mN/m | 30.85 mN/m | 30.70 mN/m | 30.30 mN/m | cloudiness | 0.01 wt % | – |
| 1,6-[2-(N,N-butylmethylamino)ethanol]hexane [Synthesis Example 16] | – | – | – | – | – | – | – | 61.98 mN/m | 51.95 mN/m | 37.45 mN/m | transparent | – | did not produced foam; also recorded: No foaming |
| 1,6-[2-(N,N-ethylmethylamino)ethanol]hexane [Synthesis Example 15] | – | – | – | – | – | – | – | 71.53 mN/m | 68.63 mN/m | 61.35 mN/m | transparent | – | No foaming |
